Measurements as given in US20230391778A1, “INDOLIN-2-ONE OR PYRROLO -PYRIDIN -2 -ONE DERIVATIVES” (Hoffmann-La Roche Inc., priority 2014, published 2023).

Biological target: T1, mouse ENT-1 transporter (Mus musculus, UniProt Q9JIM1)
T1 construct: expressed in transfected cells
T1 sequence (Q9JIM1 1-460): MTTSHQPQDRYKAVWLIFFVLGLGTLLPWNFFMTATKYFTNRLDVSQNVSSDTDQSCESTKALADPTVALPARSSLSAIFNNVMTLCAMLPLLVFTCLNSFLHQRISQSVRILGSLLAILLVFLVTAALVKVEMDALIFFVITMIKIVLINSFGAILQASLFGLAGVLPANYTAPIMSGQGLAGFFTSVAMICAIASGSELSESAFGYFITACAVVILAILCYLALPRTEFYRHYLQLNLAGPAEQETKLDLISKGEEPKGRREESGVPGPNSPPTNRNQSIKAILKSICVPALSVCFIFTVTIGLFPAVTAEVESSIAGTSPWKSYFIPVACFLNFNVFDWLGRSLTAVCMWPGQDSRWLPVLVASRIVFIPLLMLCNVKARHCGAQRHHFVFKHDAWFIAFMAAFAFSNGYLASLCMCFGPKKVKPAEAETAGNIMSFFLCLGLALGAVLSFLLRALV
Test: Measure of adenosine transport activity (ENT1 adenosine uptake inhibition)
Format: cell-based
Conditions: stable cells expressing mouse ENT-1, [2,8-3H]-adenosine 6 nM, 20 min
Protocol: To measure adenosine transport activity of ENT-1 mammalian cells, stable cells expressing the mouse ENT-1 transporter were plated on day 1 in 96-well culture plates at the density of 60,000 cells/well, in complete DMEM/F12 medium supplemented with glutamax, 10% FBS and 10 μg/ml puromycin. On day 2, the medium was aspirated and the cells were washed twice with uptake buffer (10 mM Hepes-Tris, pH 7.4 containing 150 mM NaCl, 1 mM CaCl2), 2.5 mM KCl, 2.5 mM MgSO4, 10 mM D-glucose) (UB). For inhibition experiments, cells were then incubated at RT with various concentrations of compounds with 1% DMSO final. Non-specific uptake was defined in the presence of 10 μM S-(4-Nitrobenzyl)-6-thioinosine (NBTI, Sigma Cat #N2255).
The plates were then incubated for 20 min with gentle shaking and the reaction was stopped by aspiration of the mixture and washing (three times) with ice-cold UB. The cells were lysed by the addition of scintillation liquid, shaken 3 hours and the radioactivity in the cells was estimated using a microplates scintillation counter (TopCount NXT, Packard).

Substance: 2-(3-(3,3-dimethyl-6-(2-methylpyrimidin-5-yl)-2-oxoindolin-1-yl)-1H-pyrazol-1-yl)-N,N-dimethylacetamide [Example 141]
- IC50: 1.11 µM
